# Source: patent US9102636B2, “Analgesic compounds, compositions, and uses thereof” (Galleon Pharmaceuticals, Inc., priority 2010, dated 2015)
# How the values were obtained:
# Format in all cases: in vivo
# [1] = system: fentanyl analgesia (tail flick); experiment: Preservation of fentanyl analgesia in rat tail flick assay; conditions: compound IV 15 min before fentanyl 25 μg/kg, FIG. 1
# [2] = system: fentanyl analgesia (Hargreaves); experiment: Opioid dose-sparing (simulated patient controlled analgesia), Hargreaves; conditions: rat, 25 mg/kg IV 15 min before fentanyl, five hourly fentanyl doses, FIG. 3
# [3] = system: fentanyl analgesia / hyperalgesia; experiment: Duration of action of a single IV dose on repeated fentanyl doses; conditions: rat
smiles,measurement,setting,value
"CC1(C)SC(Nc2ccccc2O)=N[C@@H]1C(=O)O [Compound 2, (R)-2-(2-hydroxyphenylamino)-thiazoline-5,5-dimethyl-4-carboxylic acid]","preservation of fentanyl analgesia, tail flick",[1],dose-dependently preserves fentanyl analgesia
same,"fentanyl dose-sparing, Hargreaves thermal endpoints",[2]; 25 mg/kg,Significant levels of analgesia were maintained
same,"fentanyl dose-sparing, Hargreaves thermal endpoints","[2]; listed as compound 2, 25 mg/kg","preserves fentanyl analgesia, allowing smaller doses of fentanyl to elicit full or significant analgesia"
same,"preservation of fentanyl analgesia (tolerance, hyperalgesia)","[3]; fentanyl 25 μg/kg daily for four days, FIG. 6",preserves fentanyl analgesia by reducing tolerance and inhibiting hyperalgesia
same,preservation of fentanyl analgesia / hyperalgesia after single dose,"[3]; four doses of fentanyl over two days, FIG. 5",preserves fentanyl analgesia and inhibits development of hyperalgesia even after four doses of fentanyl
same,preservation of fentanyl analgesia / hyperalgesia after single dose,"[3]; three doses of fentanyl 25 μg/kg separated by 2.5 hours, FIG. 4",preserves fentanyl analgesia and blocks hyperalgesia even after three doses of fentanyl
